Read-outs that look alike come from different tables or passages of the source.
How the values were obtained:
human NPFF2 receptor [1] = biological target: T1, human NPFF2 receptor (Homo sapiens, UniProt Q9Y5X5); settings: read-out: [125I]Ligand Filtration Human Ki (c); data from Eur. J. Pharmacol. 451: 245-256 (2002); cited from earlier work
human NPFF2 receptor [2] = biological target: T1, human NPFF2 receptor; assay: Fluorescence polarization (FP) competition binding assay, TAMRA-NPFF tracer, 0.1% Pluronic F-127

Amino acid sequences for entries named in this document (tags omitted). A change or cut given only in a name is not applied to a line headed by its entry.
UniProt Q9Y5X5: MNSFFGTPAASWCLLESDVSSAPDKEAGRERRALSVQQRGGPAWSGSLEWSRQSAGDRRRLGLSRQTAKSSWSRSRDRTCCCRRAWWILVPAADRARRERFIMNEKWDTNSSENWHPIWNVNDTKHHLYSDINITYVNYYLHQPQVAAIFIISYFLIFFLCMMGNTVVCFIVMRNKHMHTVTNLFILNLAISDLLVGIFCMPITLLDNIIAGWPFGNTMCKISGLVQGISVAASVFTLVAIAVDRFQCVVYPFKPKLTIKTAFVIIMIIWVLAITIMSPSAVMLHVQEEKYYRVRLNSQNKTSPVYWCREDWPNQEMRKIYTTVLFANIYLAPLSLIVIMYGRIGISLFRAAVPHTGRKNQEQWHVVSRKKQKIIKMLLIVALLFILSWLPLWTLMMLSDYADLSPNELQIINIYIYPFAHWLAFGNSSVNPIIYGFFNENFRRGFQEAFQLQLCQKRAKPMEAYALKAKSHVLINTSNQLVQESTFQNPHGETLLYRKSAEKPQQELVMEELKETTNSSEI

Ki (human NPFF2 receptor [2]): 13.2 ± 0.1 nM | Ki for inhibiting TAMRA-NPFF binding (in words) (human NPFF2 receptor [2]; FP displacement curves): nanomolar range
Structure (SMILES): N=C(N)NCCC[C@H](NC(=O)[C@H](CCC(N)=O)NC(=O)[C@@H]1CCCN1)C(=O)N[C@@H](Cc1ccccc1)C(N)=O [PQRFamide]
Ki (human NPFF2 receptor [1]): 6.8 ± 1.2 nM
